Measurements as given in PubChem BioAssay AID492947 (National Center for Advancing Translational Sciences (NCATS), 2010).
The entries are a selection whose mix differs from that of the whole data set. Some salts and complexes are drawn in separate pieces, as the source files them; their charges need not balance. Active and inactive are the calls of the source. The call rests on the fitted dose curve; in most records, active means well fitted activation curve with a large enough effect; inconclusive means small, poorly fitted or top-dose-only effect; inactive means flat fitted curve, though single readings scatter.

Protein sequences, listed by entry. Tags and fused reporters are not part of them.
UniProt P07550, whole entry: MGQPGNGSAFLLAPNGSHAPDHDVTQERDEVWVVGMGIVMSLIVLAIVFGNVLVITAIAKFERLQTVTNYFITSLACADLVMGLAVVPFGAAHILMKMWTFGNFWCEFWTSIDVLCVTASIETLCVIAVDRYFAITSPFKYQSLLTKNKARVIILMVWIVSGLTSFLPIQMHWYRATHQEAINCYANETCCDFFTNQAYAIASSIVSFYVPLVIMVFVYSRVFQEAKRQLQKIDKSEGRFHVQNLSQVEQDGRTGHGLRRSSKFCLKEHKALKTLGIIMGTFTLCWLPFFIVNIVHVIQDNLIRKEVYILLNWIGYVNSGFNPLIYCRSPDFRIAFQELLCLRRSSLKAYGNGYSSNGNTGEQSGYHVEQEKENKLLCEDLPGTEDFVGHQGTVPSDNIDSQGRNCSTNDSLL

Each molecule was assayed against Beta-2 adrenergic receptor (Homo sapiens) (UniProt P07550) (assay: qHTS assay of beta-arrestin-biased ligands of beta2-adrenergic receptor). Conditions: beta-arrestin recruitment to beta2AR, cell-based reporter; at 46.1 µM (top of the series).
From the text: NIH Molecular Libraries Probe Production Network [MLPCN]
NIH Chemical Genomics Center [NCGC]
PI: Bryan Roth and Bob Lefkowitz
The concept of biased agonism is an emerging concept of molecular pharmacology which proposes that seven transmembrane receptors (7TMRs) or G protein-coupled receptors (GPCRs), exist in multiple signaling conformations and complexes and that ligands (either agonists or antagonists) can induce signaling biased responses for distinct signal transduction cascades.
Furthermore, accumulating evidence over the last decade has drawn attention to a novel function of beta-arrestins as signal transducers that scaffold various signaling molecules upon activation of 7TMRs. […] This beta-arrestin-biased signaling presumably leads to distinct physiological outcomes from those by G protein activation.
Additionally, the active receptor conformations which […] on this beta-arrestin signaling are likely different from those activating G protein signaling
The goal of this screening project will be to discover and optimize novel beta-arrestin-biased ligands for beta2-AR signaling. A luminescent cell-based assay for beta2-AR-mediated agonism, known as the Tango assay, has been validated in which ligand binding of a recombinant beta2-AR and subsequent recruitment of a recombinant beta-arrestin lead to the release of the transcriptional activator tTA, which upregulates transcription of a tTA-responsive luciferase gene. […] Compounds were screened as a concentration-titration series that ranged from 46 microM to 0.6 nM.
NCGC Assay Protocol Summary:
Tango cells were dispensed into white, solid, tissue-culture-treated 1536-well plates at 1500 cells/well in DMEM, containing 1% fetal bovine serum (FBS). Then, 23 nL of compounds or DMSO were delivered to each well using a pin tool. Plates were incubated at 37 degrees C, 5% CO2 for 18 hr. Then 2.5 uL luminescent substrate mix (in-house prepared: 150 mM Tris-Cl, pH 7.6, 3 mM MgCl2, 1% Triton X-100, 5 mM DTT, 0.5 mM CoA, 0.15 mM ATP, 0.44 mM D-luciferin, final concentrations) was added to each well. Plates were then incubated for 15 minutes at room temperature, and subsequently measured on a ViewLux plate reader for luminescent signal using a clear filter with a 10 second exposure and 2x binning. The %Activity was determined from the corrected luminescence values.
Concentration-response curves were fitted to the signals arising from the resulting luminescence. The concentration-effect curves were then classified based on curve quality (r2), response magnitude and degree of measured activity, and compounds were subsequently categorized based on their curve class.
Keywords: biased agonism, beta2-AR, beta-arrestin, GPCR, 7TMR, Tango, luminescence, MLSMR, MLPCN, NIH Roadmap, qHTS, NCGC
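Further: 0% = DMSO controls and full agonism = EC100 isoproterenol or metaproterenol; nearly all actives have a fitted effect of over 65% in size.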

SMILES	activation
Cc1ccc(C(=O)NCC2(N3CCCCC3)CCCCC2)o1	inactive: 0.133%
Fc1ccccc1NC1CCN(Cc2ccccc2)CC1	inactive: -0.241%
COc1cc(OC)cc(C(=O)NCC2(N3CCCCC3)CCCCC2)c1	inactive: 2.9%
O=C(NCC1(N2CCCCC2)CCCCC1)c1ccco1	inactive: -0.18%
CN(C)c1ccc(C(=O)NCC2(N3CCCCC3)CCCCC2)cc1	inactive: 0.0618%
CCN1CCC(Nc2cccc(F)c2)CC1	inactive: -0.264%
CCCOc1ccc(C(=O)NCC2(N(C)C)CCCCC2)cc1	inactive: -0.698%
CC(C)(C)OC(=O)N1CCC(Nc2ccccc2)CC1	inactive: -0.0416%
O=C(O)C1(Nc2ccccc2)CCN(Cc2ccccc2)CC1	inactive: -0.36%
CCOc1ncccc1C(=O)NCC1(N2CCOCC2)CCCCC1	inactive: -0.306%
CN1CCC(Nc2ccc(F)c(Cl)c2)CC1	inactive: -0.626%
CCCOc1ccc(C)cc1CN(CCCl)CCCl	inactive: 0.0775%
CN1CCC(Nc2ccc(Cl)cc2)CC1	inactive: -0.748%
CCC(CO)(C(=O)OC1CN2CCC1CC2)c1ccccc1 (centres undefined)	inactive: -1.13%
COc1cc(OC)cc(C(=O)NCC2(N3CCOCC3)CCCCC2)c1	inactive: -0.0079%
COc1cccc(C(=O)N(c2cc(C)cc(C)c2)C2CCN(C(=O)OC(C)(C)C)CC2)c1	inactive: 0.262%
COc1ccc(C(=O)NCC2(N3CCOCC3)CCCCC2)cc1OC	inactive: -0.372%
O=C(NCC1(N2CCOCC2)CCCCC1)c1cc(Br)ccc1Cl	inactive: -0.0804%
COc1cc(C(=O)NCC2(N3CCOCC3)CCCCC2)cc(OC)c1C	inactive: -0.958%
O=C(OC1CN2CCC1CC2)C1c2ccccc2C=Cc2ccccc21 (centres undefined)	inactive: 1.86%
CCc1cc(C(=O)NCC2(N3CCCCC3)CCCCC2)sc1C	inactive: -0.228%
O=C(O)c1cccc(Nc2c([N+](=O)[O-])cc([N+](=O)[O-])cc2[N+](=O)[O-])c1	inactive: -0.0224%
N/C(=N\O)c1c(N)no[n+]1[O-]	inactive: -0.838%
CCOC(=O)N1CCC(Nc2ccc(C)cc2)CC1	inactive: -0.277%
CCOC(=O)C(CC)C1=NC(C)(C)Cc2ccccc21.O=[N+]([O-])c1cc([N+](=O)[O-])c(O)c([N+](=O)[O-])c1 (centres undefined)	inactive: -0.198%

SMILES	activation
CC(C)(C)OC(=O)N1CCC(N(C(=O)c2ccccc2)c2ccc(Cl)cc2)CC1	inactive: 0.379%
N#Cc1ccc(C(=O)NCC2(N3CCCCC3)CCCCC2)cc1	inactive: 0.307%
c1ccc(CN2CCC(Nc3ccccc3)CC2)cc1	inactive: 0.0609%
CCCN1CCC(Nc2cc(OC)cc(OC)c2)CC1	inactive: -0.425%
CN(C)C1(CNC(=O)c2cccc(C#N)c2)CCCCC1	inactive: -0.0091%
O=C(NCC1(N2CCCCC2)CCCCC1)c1cccc([N+](=O)[O-])c1	inactive: -0.138%
CSc1ccc(C(=O)NCC2(N3CCOCC3)CCCCC2)cc1	inactive: -0.0861%
CCN1CCC(Nc2ccc(Cl)cc2)CC1	inactive: -0.954%
N#CC1(Nc2ccccc2)CCN(CCc2ccccc2)CC1	inactive: 0.256%
O=C(NCC1(N2CCCCC2)CCCCC1)c1ccc(OC(F)F)cc1	inactive: -0.493%
CN1CCN(CCOC(=O)C(O)(c2ccccc2)c2ccccc2)CC1	inactive: -1.99%
COc1ccc(NC2CCN(C(=O)OC(C)(C)C)CC2)cc1	inactive: 0.173%
CC(C)c1ccc(C(=O)NCC2(N3CCOCC3)CCCCC2)cc1	inactive: -0.392%
COc1cc(C(=O)NCC2(N3CCCCC3)CCCCC2)ccc1OC(F)F	inactive: 0.114%
O=C(NCC1(N2CCOCC2)CCCCC1)c1cc(=O)[nH]c2ccccc12	inactive: 0.101%
O=C(NCC1(N2CCCCC2)CCCCC1)c1cccc(C(F)(F)F)c1	inactive: -0.305%
O=[N+]([O-])c1cc([N+](=O)[O-])c(NCC2CCS(=O)(=O)C2)c([N+](=O)[O-])c1 (centres undefined)	inactive: -0.274%
COc1cc(OC)c(C(=O)NCC2(N(C)C)CCCCC2)cc1OC	inactive: -0.705%
O=C(NCC1(N2CCOCC2)CCCCC1)c1cc(F)c(F)cc1Cl	inactive: -0.729%
COc1ccc(CN(CCCl)CCCl)cc1Cl	inactive: 0.0019%
O=[N+]([O-])c1cc([N+](=O)[O-])c(OC2CCCCC2O)c([N+](=O)[O-])c1 (centres undefined)	inactive: -0.244%
CN(C)c1cccc(C(=O)NCC2(N3CCCCC3)CCCCC2)c1	inactive: 0.494%
CC(C)c1ccc(NC2CCN(C(=O)OC(C)(C)C)CC2)cc1	inactive: 0.0651%
CCCOc1ccc(C(=O)NCC2(N(C)C)CCCCC2)cc1OC	inactive: -0.86%
O=C(NCC1(N2CCCCC2)CCCCC1)c1cncc(Br)c1	inactive: -0.0469%

SMILES	activation
COc1ccc2c(c1O)-c1c(O)c(OC)cc3c1[C@H](C2)[N+](C)(C)CC3.O=[N+]([O-])c1cc([N+](=O)[O-])c([O-])c([N+](=O)[O-])c1[O-]	inactive: -0.0364%
O=C(OC1CN2CCC1CC2)c1ccc([N+](=O)[O-])cc1 (centres undefined)	inactive: -0.394%
CSc1ccccc1C(=O)NCC1(N2CCCCC2)CCCCC1	inactive: 0.174%
O=C(NCC1(N2CCCCC2)CCCCC1)c1ccc(=O)[nH]c1	inactive: -0.414%
O=C(NCC1(N2CCCCC2)CCCCC1)c1cccs1	inactive: -0.164%
COc1ccc(C(=O)NCC2(N3CCCCC3)CCCCC2)cc1	inactive: 0.227%
COc1ccc(C(=O)NCC2(N3CCCCC3)CCCCC2)c(OC)c1OC	inactive: -0.226%
CC(C)(C)OC(=O)N1CCC(N(C(=O)c2ccccc2)c2ccc(F)cc2)CC1	inactive: 0.293%
CCOC(=O)N1CCC(Nc2ccc(OC)cc2)CC1	inactive: 0.32%
O=C(OC1CN2CCC1CC2)C1c2ccccc2Oc2ccccc21 (centres undefined)	inactive: -0.408%
O=C(NCC1(N2CCCCC2)CCCCC1)c1ccc(Cl)s1	inactive: -0.0959%
N#CC1(Nc2ccccc2)CCN(Cc2ccccc2)CC1	inactive: -0.348%
COc1ccc(Cl)cc1C(=O)NCC1(N2CCOCC2)CCCCC1	inactive: -0.0549%
O=C(NCC1(N2CCOCC2)CCCCC1)c1cc2ccccc2o1	inactive: -0.414%
O=C(NCC1(N2CCCCC2)CCCCC1)c1ccc(Cl)nc1	inactive: -0.095%
Cc1cc(C)cc(N(C(=O)c2ccccc2)C2CCN(C(=O)OC(C)(C)C)CC2)c1	inactive: 9.22%
O=C(NCC1(N2CCCCC2)CCCCC1)c1ccc(F)cc1	inactive: 0.072%
CCCCOc1ccc(C(=O)NCC2(N3CCOCC3)CCCCC2)cc1	inactive: 0.0689%
COc1ccc(NC2CCN(CCc3ccccc3)CC2)c(OC)c1	inactive: -0.352%
CCOC(=O)N1CCC(Nc2ccc(F)cc2)CC1	inactive: 0.5%
CCOc1ccc(C)cc1CN(CCCl)CCCl	inactive: 5.98%
COc1cc(C(=O)NCC2(N(C)C)CCCCC2)ccc1OC(F)F	inactive: 0.434%
CCOC(=O)N1CCC(Nc2cccc(C)c2)CC1	inactive: -0.253%
Cc1ccc(OCC(C)C)c(CN(CCCl)CCCl)c1	inactive: 0.264%
